Test results as given in patent publication US10633338B2, “Binding Function 3 (BF3) site compounds as therapeutics and methods for their use” (THE UNIVERSITY OF BRITISH COLUMBIA, priority 2014, dated 2020).

Protein sequences, listed by entry. Tags and fused reporters are not part of them.
UniProt P10275, whole entry T878A: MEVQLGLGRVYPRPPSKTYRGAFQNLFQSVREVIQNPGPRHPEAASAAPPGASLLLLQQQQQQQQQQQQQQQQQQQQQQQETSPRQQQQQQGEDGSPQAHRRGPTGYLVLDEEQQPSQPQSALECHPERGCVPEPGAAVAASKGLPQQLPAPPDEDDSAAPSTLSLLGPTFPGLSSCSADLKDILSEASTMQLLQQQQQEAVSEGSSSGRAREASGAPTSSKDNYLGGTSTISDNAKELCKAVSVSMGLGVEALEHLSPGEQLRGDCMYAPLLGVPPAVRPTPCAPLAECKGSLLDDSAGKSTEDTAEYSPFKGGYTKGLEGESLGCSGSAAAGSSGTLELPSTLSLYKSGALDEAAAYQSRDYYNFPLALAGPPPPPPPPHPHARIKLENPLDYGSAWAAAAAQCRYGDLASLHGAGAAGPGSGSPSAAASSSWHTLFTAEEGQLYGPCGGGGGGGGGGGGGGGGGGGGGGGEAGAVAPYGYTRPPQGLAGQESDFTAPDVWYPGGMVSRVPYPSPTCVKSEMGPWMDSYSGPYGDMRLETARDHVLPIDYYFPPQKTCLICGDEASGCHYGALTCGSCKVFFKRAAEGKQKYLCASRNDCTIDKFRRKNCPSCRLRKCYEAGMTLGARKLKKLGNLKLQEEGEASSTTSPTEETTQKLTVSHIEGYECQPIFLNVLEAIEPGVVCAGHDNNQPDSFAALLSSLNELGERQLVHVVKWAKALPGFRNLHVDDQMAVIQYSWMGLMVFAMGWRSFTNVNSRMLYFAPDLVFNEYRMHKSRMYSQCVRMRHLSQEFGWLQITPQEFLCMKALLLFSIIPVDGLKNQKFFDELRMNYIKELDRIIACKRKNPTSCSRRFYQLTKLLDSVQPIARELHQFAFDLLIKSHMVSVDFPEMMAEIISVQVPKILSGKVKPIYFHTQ

Target: T1, androgen receptor (AR) (Homo sapiens, UniProt P10275, T878A)
T1 construct: stably transfected eGFP-expressing LNCaP human prostate cancer cells (LN-ARR2PB-eGFP) containing an androgen responsive probasin-derived promoter; endogenous in cells; host or cells: LNCaP (LN-ARR2PB-eGFP)
Experiment: eGFP cellular AR transcription assay
Assay type: cell-based
Description: After 5 days, the cells were plated into a 96-well plate (35,000 cells/well) with 0.1 nM of the synthetic androgen R1881 and increasing concentrations (0-100 μM) of compound.
After 5 days, the cells were plated into a 96-well plate (35,000 cells/well) with 0.1 nM R1881 and increasing concentrations (0-100 μM) of compound.
In this assay, the expression of eGFP is under the control of an androgen responsive probasin-derived promoter and can quantify AR transcriptional activity.

How did the pIC50 turn out when `Fc1cc(Cl)c2[nH]cc(-c3ccc4ccccc4n3)c2c1` [Compound 13624] was run?
Its pIC50 is 7.00.

pIC50: −log10 of the molar value.
